Results from PMC12371494, “Discovery of YTHDF2 Ligands by Fragment-Based Design” (ACS Bio & Med Chem Au, 2025).

Amino acid sequences for entries named in this document (tags omitted). Residues count along the entry.
UniProt Q9Y5A9, whole entry: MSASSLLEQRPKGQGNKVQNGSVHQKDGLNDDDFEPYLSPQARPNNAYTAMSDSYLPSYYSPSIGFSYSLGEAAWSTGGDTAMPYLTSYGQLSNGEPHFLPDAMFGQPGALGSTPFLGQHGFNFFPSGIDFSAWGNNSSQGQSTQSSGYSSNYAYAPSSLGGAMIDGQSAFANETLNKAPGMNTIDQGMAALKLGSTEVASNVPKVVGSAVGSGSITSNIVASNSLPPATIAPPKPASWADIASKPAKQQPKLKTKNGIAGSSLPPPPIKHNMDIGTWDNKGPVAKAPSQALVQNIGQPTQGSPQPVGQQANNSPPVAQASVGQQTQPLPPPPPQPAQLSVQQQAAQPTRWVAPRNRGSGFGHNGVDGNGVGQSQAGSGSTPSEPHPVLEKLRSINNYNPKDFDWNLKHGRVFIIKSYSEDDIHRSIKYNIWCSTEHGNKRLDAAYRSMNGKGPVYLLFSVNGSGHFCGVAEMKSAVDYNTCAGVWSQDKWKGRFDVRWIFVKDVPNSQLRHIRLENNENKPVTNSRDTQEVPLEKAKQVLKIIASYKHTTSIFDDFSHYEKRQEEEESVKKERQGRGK
UniProt Q7Z739, whole entry: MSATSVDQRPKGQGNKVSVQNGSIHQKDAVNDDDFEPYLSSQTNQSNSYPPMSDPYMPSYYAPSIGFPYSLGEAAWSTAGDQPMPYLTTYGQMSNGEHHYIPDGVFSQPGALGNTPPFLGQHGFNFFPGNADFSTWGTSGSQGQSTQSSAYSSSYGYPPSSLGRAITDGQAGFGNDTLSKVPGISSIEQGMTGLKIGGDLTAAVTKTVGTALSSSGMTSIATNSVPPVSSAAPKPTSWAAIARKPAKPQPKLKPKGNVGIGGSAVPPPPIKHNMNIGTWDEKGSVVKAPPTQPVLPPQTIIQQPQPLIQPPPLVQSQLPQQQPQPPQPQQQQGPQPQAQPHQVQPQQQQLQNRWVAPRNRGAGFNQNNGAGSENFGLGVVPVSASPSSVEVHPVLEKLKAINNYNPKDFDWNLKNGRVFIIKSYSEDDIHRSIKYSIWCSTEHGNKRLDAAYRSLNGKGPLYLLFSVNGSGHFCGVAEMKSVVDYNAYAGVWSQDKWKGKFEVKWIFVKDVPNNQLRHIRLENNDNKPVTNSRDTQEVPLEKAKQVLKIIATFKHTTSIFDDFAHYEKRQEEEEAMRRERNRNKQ
UniProt Q9BYJ9, whole entry: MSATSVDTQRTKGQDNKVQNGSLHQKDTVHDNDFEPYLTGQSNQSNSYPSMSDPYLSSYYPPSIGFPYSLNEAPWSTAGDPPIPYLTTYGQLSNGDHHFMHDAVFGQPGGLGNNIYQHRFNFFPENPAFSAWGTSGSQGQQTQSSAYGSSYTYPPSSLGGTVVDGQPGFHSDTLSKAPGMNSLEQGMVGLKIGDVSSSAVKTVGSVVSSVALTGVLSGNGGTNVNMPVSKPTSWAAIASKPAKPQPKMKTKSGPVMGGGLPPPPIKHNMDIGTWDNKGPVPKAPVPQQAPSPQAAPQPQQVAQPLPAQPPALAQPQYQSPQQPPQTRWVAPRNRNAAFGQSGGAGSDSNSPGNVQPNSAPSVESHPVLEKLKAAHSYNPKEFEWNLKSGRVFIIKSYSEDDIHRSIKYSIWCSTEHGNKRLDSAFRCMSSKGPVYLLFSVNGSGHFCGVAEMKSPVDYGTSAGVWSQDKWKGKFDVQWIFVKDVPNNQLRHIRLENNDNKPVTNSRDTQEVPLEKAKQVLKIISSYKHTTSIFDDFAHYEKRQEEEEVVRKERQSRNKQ
UniProt Q9H6S0, 1285-1424 limits assumed: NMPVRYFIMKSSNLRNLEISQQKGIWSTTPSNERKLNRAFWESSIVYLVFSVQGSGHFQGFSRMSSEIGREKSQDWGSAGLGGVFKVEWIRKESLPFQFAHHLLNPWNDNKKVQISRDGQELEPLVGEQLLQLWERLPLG

How the values were obtained:
[1] = target: GST-YTHDF2 (Homo sapiens, UniProt Q9Y5A9); test: HTRF-based binding assay, competition with m6A-oligoRNA, DF2; settings: for Residual signal at 1 mM concentration / Single-dose residual signal at 100 µM, DF2: HTRF; for Residual signal at 1 mM concentration: 1 mM compound, relative to control, average of two technical replicates, * = interference with the assay; for IC50: read-out: DF2 IC50 (HTRF assay), dose-response, competitor m6A-oligoRNA; for Single-dose residual signal at 100 µM, DF2: 100 µM compound, normalized
[2] = target: GST-YTHDF3 (Homo sapiens, UniProt Q7Z739); test: HTRF-based binding assay, DF3; settings: 100 µM compound, normalized
[3] = target: YTHDF2 (Homo sapiens, UniProt Q9Y5A9); test: DNA-fluorescence polarization (FP) competition assay, DF2; settings: read-out: FP assay Kd DF2; Cheng-Prusoff from FP IC50, probe Kd 5 nM; two biological replicates
[4] = target: GST-YTHDF1 (Homo sapiens, UniProt Q9BYJ9); test: HTRF-based binding assay, DF1; settings: 100 µM compound, normalized
[5] = target: YTHDC2 (Homo sapiens, UniProt Q9H6S0); test: DNA-fluorescence polarization (FP) competition assay, DC2; settings: read-out: FP assay Kd DC2; Cheng-Prusoff from FP IC50, probe Kd 7 nM; two biological replicates

Residual signal at 1 mM concentration [1] [%]	LE (ligand efficiency, DF2) ([1]; LE = -RT ln IC50/HAC from HTRF IC50)	IC50 [1] [µM]	Single-dose residual signal at 100 µM, DF3 [2] [%]	Kd [3] [µM]	Single-dose residual signal at 100 µM, DF1 [4] [%]	Kd [5] [µM]	Single-dose residual signal at 100 µM, DF2 [1] [%]	Compound
10	0.39 kcal/(mol HAC)	14						CC1(C)Cc2c(sc3[nH]c(=S)[nH]c(=O)c23)CO1
53		410						O=C(Nc1ccc2[nH]c(=S)[nH]c2c1)c1ccccc1
		40	25	8.1	32	34	11	O=c1[nH]c(=S)[nH]c2sc(-c3ccccc3)cc12

The next lines start with the molecule.

Compound	Residual signal at 1 mM concentration [1] [%]	LE (ligand efficiency, DF2) ([1]; LE = -RT ln IC50/HAC from HTRF IC50)	IC50 [1] [µM]	Single-dose residual signal at 100 µM, DF3 [2] [%]	Kd [3] [µM]	Single-dose residual signal at 100 µM, DF1 [4] [%]	Kd [5] [µM]	Single-dose residual signal at 100 µM, DF2 [1] [%]
O=c1[nH]c(=S)[nH]c2ccccc12	16		610					
CNC(=O)c1cnc2[nH]c(C)nc2c1	27		540					
Cc1c(C(=O)NCCCC(=O)OC(C)(C)C)sc2[nH]c(=S)[nH]c(=O)c12			22	20		18	> 1000	5
